Test results reported in US9272034B2, “Treatment of conditions related to shock” (The Regents of the University of California, priority 2007, dated 2016).

Tested on: cytotoxic factors (free fatty acids) of intestinal homogenates
Assay: Cell death caused by rat small intestine homogenates
Assay type: cell-based
Conditions: addition of albumin not previously digested with protease
Description: Using a fluorescent substrate, the inventors found high levels of lipase activity in intestinal homogenates and cytotoxic levels of free fatty acids. […] Breakdown of free fatty acid binding proteins by proteases causes release of free fatty acids to act as powerful cytotoxic mediators.

Substance: albumin
- cell death: prevented cell death
